Laboratory results reported in patent US5981483A, “Compositions comprising modulators of cytokines of the TGF-β superfamily” (Mount Sinai Hospital Corporation, priority 1997, dated 1999).

Assays:
BMP-2 = target: T1, BMP-2 (Homo sapiens, UniProt P12643); assay: BIAcore surface plasmon resonance, binding to immobilized BMP-2; conditions: for Competition of fetuin-BMP-2 binding: co-injected with fetuin, data not shown
T1 construct: Genetics Institute, Cambridge, Mass; (gift)
T1 sequence (P12643 283-396): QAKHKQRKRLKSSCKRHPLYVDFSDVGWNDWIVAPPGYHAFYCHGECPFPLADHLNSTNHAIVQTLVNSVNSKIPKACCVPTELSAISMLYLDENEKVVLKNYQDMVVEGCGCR

[1] = test system: rat bone marrow stromal cells; assay: Dexamethasone-treated rat bone marrow stromal cell cultures (proliferation, mineralization, TGF-β levels); assay type: cell-based; conditions: data not shown
Experimental: The methods used in the studies described in this example and illustrated in FIGS. 16 and 17 are as follows. Femoral bones were removed under aseptic conditions from adult male Wistar rats (120 g), cleaned of adherent soft tissues, and washed extensively in antibiotics. The distal ends were removed and the marrow contents were flushed out with 10 ml of culture medium. The cells were dispersed by repeated passage through a 20 gauge needle and incubated in alpha-MEM supplemented with 15% fetal bovine serum, ascorbic acid (50 μg/ml), antibiotics (penicillin G 100 μg/ml, gentamicin 50 μg/ml, fungizone 0.3 μg/ml) and 10 mM β-glycerophosphate. […] Following 6 days of culture at 37° C. in a humidified atmosphere containing 5% CO2 in air, the cells were re-plated at a density of 1×10^2 cell/mm^2 in 96 multi-well plates (Falcon 3047), and grown for another 12-14 days. At the end of culture, the cells were fixed and stained for calcium with alizarin red-s for quantification of bone nodule area (reported as mineralized area (mm^2)/well). […] TGF-β in culture supernatants taken 4 days prior to scoring mineralization were measured with and without heat activation (80° C. for 10 min) using the Mink cells as the indicator cell line as described in FIG. 12. […]

Mv1Lu cells = assay: 3H-Thymidine incorporation in Mv1Lu cells: proliferation / growth; assay type: cell-based, mink; conditions: read-out: IC50, inhibition of Mv1Lu cell growth
Experimental: Mv1Lu cells were seeded at 20,000 cells/well in a 96 well plate containing 0.2% FCS in α-MEM and incubated with the indicated concentrations of proteins for 18 hr. The cells were then pulsed with 8 μCi/ml methyl-^3 H-thymidine (NEN, Boston, Mass.) for 6 hr. Cells were trypsinized, harvested onto filtermats and counted in a β-Counter. Percent neutralization is defined as incorporation in the presence of 12 pM TGF-β1 alone set at 0%, and incorporation without additions as 100%. The difference in ^3 H-thymidine incorporation between 0% and 100% was 7.5 fold. Each point in FIG. 1 and FIG. 12 represents the mean of duplicate determinations, and the results are representative of three experiments. […] Before use, bovine thyroglobulin was spun twice in a centricon (M.W. cutoff of 10,000 Da) micro-concentrator (Amicon, Beverly, Mass.) to remove any excess Iodine and T3/T4 thyroid hormones.

Compound: CC[C@H](C)[C@H](NC(=O)[C@H](CC(=O)O)NC(=O)[C@@H](N)CSCC(N)=O)C(=O)N[C@@H](Cc1c[nH]cn1)C(=O)N[C@H](C(=O)N[C@@H](CC(C)C)C(=O)N[C@@H](CCCCN)C(=O)N[C@@H](CCC(N)=O)C(=O)N[C@@H](CC(=O)O)C(=O)NCC(=O)N[C@@H](CCC(N)=O)C(=O)N[C@@H](Cc1ccccc1)C(=O)N[C@@H](CO)C(=O)N[C@H](C(=O)N[C@@H](CC(C)C)C(=O)N[C@@H](Cc1ccccc1)C(=O)N[C@H](C(=O)N[C@@H](CCCCN)C(=O)N[C@@H](CSCC(N)=O)C(=O)O)[C@@H](C)O)C(C)C)C(C)C [TRH1b (fetuin) (reduced & alkylated)]
- Competition of fetuin-BMP-2 binding (BMP-2): to a much lesser extent
- binding to immobilized BMP-2 (in words) (BMP-2; listed as reduced and alkylated THR1b peptide): lack of binding

Compound: CC[C@H](C)[C@@H]1NC(=O)[C@H](CC(=O)O)NC(=O)[C@@H](N)CSSC[C@@H](C(=O)O)NC(=O)[C@H](CCCCN)NC(=O)[C@H]([C@@H](C)O)NC(=O)[C@H](Cc2ccccc2)NC(=O)[C@H](CC(C)C)NC(=O)[C@H](C(C)C)NC(=O)[C@H](CO)NC(=O)[C@H](Cc2ccccc2)NC(=O)[C@H](CCC(N)=O)NC(=O)CNC(=O)[C@H](CC(=O)O)NC(=O)[C@H](CCC(N)=O)NC(=O)[C@H](CCCCN)NC(=O)[C@H](CC(C)C)NC(=O)[C@H](C(C)C)NC(=O)[C@H](Cc2c[nH]cn2)NC1=O [TRH1b (fetuin)]
- Saturation of binding to immobilized BMP-2 (BMP-2; 5300 R.U. BMP-2 immobilized, FIG. 9): approximately 550 R.U.
- kass (BMP-2; Table 1, ligand BMP-2): 1600 ± 500 M⁻¹ s⁻¹
- Competition of fetuin-BMP-2 binding (BMP-2; listed as cyclized TRH1b peptide): observed

Compound: BMP-2: recombinant human BMP-2 (Genetics Institute), TGF-β superfamily cytokine
- osteogenesis in the cultures [1]: induced osteogenesis
- IC50 (Mv1Lu cells): 20 nM
